According to BindingDB's records for PubMed 7520908 (Janssen Research Foundation, 1994):
Structures can show the parent of a compound that is named as a salt.

By UniProt entry, the sequences of proteins in these tests, tags left out.
UniProt P28222, whole entry: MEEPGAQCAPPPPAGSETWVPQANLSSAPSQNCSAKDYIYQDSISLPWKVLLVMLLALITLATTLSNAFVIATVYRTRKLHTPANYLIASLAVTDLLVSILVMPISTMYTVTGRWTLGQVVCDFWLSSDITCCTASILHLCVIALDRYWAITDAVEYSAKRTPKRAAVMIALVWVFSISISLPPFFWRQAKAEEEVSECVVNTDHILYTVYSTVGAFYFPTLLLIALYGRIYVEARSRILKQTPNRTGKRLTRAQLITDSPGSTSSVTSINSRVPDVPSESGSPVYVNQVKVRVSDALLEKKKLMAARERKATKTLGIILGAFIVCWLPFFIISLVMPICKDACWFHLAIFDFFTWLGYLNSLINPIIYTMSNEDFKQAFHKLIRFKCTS

Target: 5-hydroxytryptamine receptor 1B (Homo sapiens, UniProt P28222)

Ki: 283 nM
SMILES: O=C(CCCN1CCC(O)(c2ccc(Cl)cc2)CC1)c1ccc(F)cc1 [4-[4-(4-Chloro-phenyl)-4-hydroxy-piperidin-1-yl]-1-(4-fluoro-phenyl)-butan-1-one;propionate(HCl)]
